Results: PMC6013267 (Medicinal chemistry research : an international journal for …, 2018)
Read-outs that look alike come from different tables or passages of the source.

Chains of the proteins cited; added tags and fusions are not shown. Residues count along the entry.
UniProt P09483, 31-630: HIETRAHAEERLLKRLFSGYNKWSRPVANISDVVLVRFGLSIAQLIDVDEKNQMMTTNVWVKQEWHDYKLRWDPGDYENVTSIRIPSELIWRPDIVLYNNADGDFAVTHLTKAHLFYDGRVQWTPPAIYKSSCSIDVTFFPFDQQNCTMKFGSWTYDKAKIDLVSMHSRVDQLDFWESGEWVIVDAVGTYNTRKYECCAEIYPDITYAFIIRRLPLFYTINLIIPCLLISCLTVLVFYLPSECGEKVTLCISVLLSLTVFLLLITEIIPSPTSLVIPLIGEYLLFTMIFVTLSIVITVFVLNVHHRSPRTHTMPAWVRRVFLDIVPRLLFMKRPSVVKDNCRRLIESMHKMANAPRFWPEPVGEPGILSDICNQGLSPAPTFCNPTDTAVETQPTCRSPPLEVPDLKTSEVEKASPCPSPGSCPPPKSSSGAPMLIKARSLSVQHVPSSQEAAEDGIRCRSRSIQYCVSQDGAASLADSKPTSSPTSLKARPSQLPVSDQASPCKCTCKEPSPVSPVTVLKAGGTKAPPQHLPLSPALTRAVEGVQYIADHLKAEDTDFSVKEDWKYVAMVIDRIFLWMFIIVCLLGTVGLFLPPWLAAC
UniProt P12390, 25-500: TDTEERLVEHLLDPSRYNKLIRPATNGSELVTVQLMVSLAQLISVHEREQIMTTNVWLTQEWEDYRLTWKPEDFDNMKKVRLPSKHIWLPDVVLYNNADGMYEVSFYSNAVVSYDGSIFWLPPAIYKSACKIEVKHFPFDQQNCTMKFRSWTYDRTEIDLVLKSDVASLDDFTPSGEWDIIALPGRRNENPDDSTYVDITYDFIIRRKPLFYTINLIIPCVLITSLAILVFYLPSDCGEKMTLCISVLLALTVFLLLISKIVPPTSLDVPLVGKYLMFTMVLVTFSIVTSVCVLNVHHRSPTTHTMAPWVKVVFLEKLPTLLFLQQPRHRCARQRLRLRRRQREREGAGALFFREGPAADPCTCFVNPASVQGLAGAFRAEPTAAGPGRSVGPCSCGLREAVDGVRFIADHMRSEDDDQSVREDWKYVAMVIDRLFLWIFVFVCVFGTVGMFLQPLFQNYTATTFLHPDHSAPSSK

Biological target: α4β2* nAChRs (Rattus norvegicus, UniProt P09483+P12390)
Conditions: read-out: IC50, [3H]cytisine displacement, rat brain slices

Substance | IC50 (frontal cortex) [nM] | IC50 (subiculum) [nM] | IC50 (thalamus) [nM]
5-(3-methoxy-4-propyloxycinnamate)-3-(2-(S)-pyrrolidinylmethoxy)pyridine [GKS-007] | 3.18 | 5.4 | 3.44
5-(3′-Ethyl 3-methoxy-4-propyloxycinnamate)-3-(2-(S)-pyrrolidinylmethoxy)pyridine [GKS-006] | 5.33 | 2.83 | 2.8
